In US10912763B2 (priority 2010, dated 2021):
Where two headings read alike, the source gives them in different places.

Legend:
[1] = test system: acute post-operative pain following orthopedic surgery (bunionectomy); conditions: for sum of pain intensity differences, LS mean / sum of pain intensity differences, LS mean Δplacebo / LS mean Δplacebo, sum of pain intensity differences / LS mean, sum of pain intensity differences / Sum of pain intensity differences, LS mean Δplacebo / Sum of pain intensity differences, LS mean: 2 to 10 hour period; for sum of pain intensity differences, LS mean / sum of pain intensity differences, LS mean Δplacebo: ANCOVA; for TEAE: ASAT increased / TEAE: Dizziness / TEAE: Hot flush / TEAE: Hyperhidrosis / TEAE: Nausea / TEAE: Pruritus / TEAE: Somnolence / TEAE: Vomiting: 100% = total number of subjects in treatment group; for Sum of pain intensity differences, LS mean: hemicitrate oral solution in Macrogol 400
[2] = Bioavailability study after single oral administration (capsule or tablet vs oral solution); conditions: single oral dose of 400 μg, independent from the galenic formulation

CN(C)[C@]1(c2ccccc2)CC[C@]2(CC1)OCCc1c3cc(F)ccc3[nH]c12
Difference to placebo groups on the primary parameter ([1]; 200 μg dose): no statistically significant difference | deaths ([1]; 200 μg single dose): 0 | subjects with SAE's ([1]; 200 μg single dose): 0 | subjects with TEAE(s) (n (%)) ([1]; 200 μg single dose): 37 (67.3) n (%) | subjects with TEAE(s): related (n (%)) ([1]; 200 μg single dose): 24 (43.6) n (%) | subjects with TEAE(s): serious (n (%)) ([1]; 200 μg single dose): 0 n (%) | total number of TEAE's: related (n (%)) ([1]; 200 μg single dose): 37 (49.3) n (%) | sum of pain intensity differences, LS mean ([1]; 200 μg single dose): 46.05 | sum of pain intensity differences, LS mean Δplacebo ([1]; 200 μg single dose): −3.08 | TEAE: ASAT increased ([1]; 200 μg single dose): 1.8% | TEAE: Dizziness ([1]; 200 μg single dose): 20.0% | TEAE: Hot flush ([1]; 200 μg single dose): 1.8% | TEAE: Hyperhidrosis ([1]; 200 μg single dose): 0% | TEAE: Nausea ([1]; 200 μg single dose): 29.1% | TEAE: Pruritus ([1]; 200 μg single dose): 0% | TEAE: Somnolence ([1]; 200 μg single dose): 1.8% | TEAE: Vomiting ([1]; 200 μg single dose): 9.1% | Difference to placebo groups on the primary parameter ([1]; 400 μg dose): statistically significant difference | Efficacy compared with morphine ([1]; 400 μg dose, vs morphine 60 mg): comparable in efficacy | deaths ([1]; 400 μg single dose): 0 | subjects with SAE's ([1]; 400 μg single dose): 0 | subjects with TEAE(s) (n (%)) ([1]; 400 μg single dose): 38 (77.6) n (%) | subjects with TEAE(s): related (n (%)) ([1]; 400 μg single dose): 32 (65.3) n (%) | subjects with TEAE(s): serious (n (%)) ([1]; 400 μg single dose): 0 n (%) | total number of TEAE's: related (n (%)) ([1]; 400 μg single dose): 74 (59.2) n (%) | sum of pain intensity differences, LS mean ([1]; 400 μg single dose): 35.28 | sum of pain intensity differences, LS mean Δplacebo ([1]; 400 μg single dose): −13.85 | TEAE: ASAT increased ([1]; 400 μg single dose): 6.1% | TEAE: Dizziness ([1]; 400 μg single dose): 22.4% | TEAE: Hot flush ([1]; 400 μg single dose): 4.1% | TEAE: Hyperhidrosis ([1]; 400 μg single dose): 0% | TEAE: Nausea ([1]; 400 μg single dose): 49.0% | TEAE: Pruritus ([1]; 400 μg single dose): 6.1% | TEAE: Somnolence ([1]; 400 μg single dose): 10.2% | TEAE: Vomiting ([1]; 400 μg single dose): 20.4% | Difference to placebo groups on the primary parameter ([1]; 600 μg dose): statistically significant difference | Incidence of adverse events ([1]; 600 μg dose, vs morphine 60 mg): comparable to that of the morphine patient group | deaths ([1]; 600 μg single dose): 0 | subjects with SAE's ([1]; 600 μg single dose): 0 | subjects with TEAE(s) (n (%)) ([1]; 600 μg single dose): 48 (84.2) n (%) | subjects with TEAE(s): related (n (%)) ([1]; 600 μg single dose): 43 (75.4) n (%) | subjects with TEAE(s): serious (n (%)) ([1]; 600 μg single dose): 0 n (%) | total number of TEAE's: related (n (%)) ([1]; 600 μg single dose): 146 (73.7) n (%) | sum of pain intensity differences, LS mean ([1]; 600 μg single dose): 35.15 | sum of pain intensity differences, LS mean Δplacebo ([1]; 600 μg single dose): −13.98 | TEAE: ASAT increased ([1]; 600 μg single dose): 1.8% | TEAE: Dizziness ([1]; 600 μg single dose): 26.3% | TEAE: Hot flush ([1]; 600 μg single dose): 7.0% | TEAE: Hyperhidrosis ([1]; 600 μg single dose): 5.3% | TEAE: Nausea ([1]; 600 μg single dose): 64.9% | TEAE: Pruritus ([1]; 600 μg single dose): 3.5% | TEAE: Somnolence ([1]; 600 μg single dose): 14.0% | TEAE: Vomiting ([1]; 600 μg single dose): 49.1% | LS mean Δplacebo, sum of pain intensity differences ([1]; single dose 200 μg): −3.08 | LS mean, sum of pain intensity differences ([1]; single dose 200 μg): 46.05 | Sum of pain intensity differences, LS mean Δplacebo ([1]; single dose 200 μg): −3.08 | Sum of pain intensity differences, LS mean ([1]; single dose 200 μg): 46.05 | LS mean Δplacebo, sum of pain intensity differences ([1]; single dose 400 μg): −13.85 | LS mean, sum of pain intensity differences ([1]; single dose 400 μg): 35.28 | Sum of pain intensity differences, LS mean Δplacebo ([1]; single dose 400 μg): −13.85 | Sum of pain intensity differences, LS mean ([1]; single dose 400 μg): 35.28 | LS mean Δplacebo, sum of pain intensity differences ([1]; single dose 600 μg): −13.98 | LS mean, sum of pain intensity differences ([1]; single dose 600 μg): 35.15 | Sum of pain intensity differences, LS mean Δplacebo ([1]; single dose 600 μg): −13.98 | Sum of pain intensity differences, LS mean ([1]; single dose 600 μg): 35.15 | Incidence of adverse events, dependence on dose ([1]; 200, 400, 600 μg single dose): increased with the dose | TEAE ASAT increased, subjects ([1]; single dose 200 μg): 1.8% | TEAE Dizziness, subjects ([1]; single dose 200 μg): 20.0% | TEAE Hot flush, subjects ([1]; single dose 200 μg): 1.8% | TEAE Hyperhidrosis, subjects ([1]; single dose 200 μg): 0% | TEAE Nausea, subjects ([1]; single dose 200 μg): 29.1% | TEAE Pruritus, subjects ([1]; single dose 200 μg): 0% | TEAE Somnolence, subjects ([1]; single dose 200 μg): 1.8% | TEAE Vomiting, subjects ([1]; single dose 200 μg): 9.1% | deaths ([1]; single dose 200 μg): 0 | subjects with SAE's ([1]; single dose 200 μg): 0 | subjects with TEAE(s) ([1]; single dose 200 μg): 37 (67.3) n (%) | subjects with TEAE(s), related ([1]; single dose 200 μg): 24 (43.6) n (%) | subjects with TEAE(s), serious ([1]; single dose 200 μg): 0 n (%) | total number of TEAE's ([1]; single dose 200 μg): 75 n | total number of TEAE's, related ([1]; single dose 200 μg): 37 (49.3) n (%) | TEAE ASAT increased, subjects ([1]; single dose 400 μg): 6.1% | TEAE Dizziness, subjects ([1]; single dose 400 μg): 22.4% | TEAE Hot flush, subjects ([1]; single dose 400 μg): 4.1% | TEAE Hyperhidrosis, subjects ([1]; single dose 400 μg): 0% | TEAE Nausea, subjects ([1]; single dose 400 μg): 49.0% | TEAE Pruritus, subjects ([1]; single dose 400 μg): 6.1% | TEAE Somnolence, subjects ([1]; single dose 400 μg): 10.2% | TEAE Vomiting, subjects ([1]; single dose 400 μg): 20.4% | deaths ([1]; single dose 400 μg): 0 | subjects with SAE's ([1]; single dose 400 μg): 0 | subjects with TEAE(s) ([1]; single dose 400 μg): 38 (77.6) n (%) | subjects with TEAE(s), related ([1]; single dose 400 μg): 32 (65.3) n (%) | subjects with TEAE(s), serious ([1]; single dose 400 μg): 0 n (%) | total number of TEAE's ([1]; single dose 400 μg): 125 n | total number of TEAE's, related ([1]; single dose 400 μg): 74 (59.2) n (%) | TEAE ASAT increased, subjects ([1]; single dose 600 μg): 1.8% | TEAE Dizziness, subjects ([1]; single dose 600 μg): 26.3% | TEAE Hot flush, subjects ([1]; single dose 600 μg): 7.0% | TEAE Hyperhidrosis, subjects ([1]; single dose 600 μg): 5.3% | TEAE Nausea, subjects ([1]; single dose 600 μg): 64.9% | TEAE Pruritus, subjects ([1]; single dose 600 μg): 3.5% | TEAE Somnolence, subjects ([1]; single dose 600 μg): 14.0% | TEAE Vomiting, subjects ([1]; single dose 600 μg): 49.1% | deaths ([1]; single dose 600 μg): 0 | subjects with SAE's ([1]; single dose 600 μg): 0 | subjects with TEAE(s) ([1]; single dose 600 μg): 48 (84.2) n (%) | subjects with TEAE(s), related ([1]; single dose 600 μg): 43 (75.4) n (%) | subjects with TEAE(s), serious ([1]; single dose 600 μg): 0 n (%) | total number of TEAE's ([1]; single dose 600 μg): 198 n | total number of TEAE's, related ([1]; single dose 600 μg): 146 (73.7) n (%) | Safety and tolerability [2]: safe and well tolerated
